These results are taken from ChEMBL document CHEMBL1201862, “PubChem BioAssay data set” (2004).

Chains of the proteins cited; added tags and fusions are not shown.
UniProt P35372, whole entry: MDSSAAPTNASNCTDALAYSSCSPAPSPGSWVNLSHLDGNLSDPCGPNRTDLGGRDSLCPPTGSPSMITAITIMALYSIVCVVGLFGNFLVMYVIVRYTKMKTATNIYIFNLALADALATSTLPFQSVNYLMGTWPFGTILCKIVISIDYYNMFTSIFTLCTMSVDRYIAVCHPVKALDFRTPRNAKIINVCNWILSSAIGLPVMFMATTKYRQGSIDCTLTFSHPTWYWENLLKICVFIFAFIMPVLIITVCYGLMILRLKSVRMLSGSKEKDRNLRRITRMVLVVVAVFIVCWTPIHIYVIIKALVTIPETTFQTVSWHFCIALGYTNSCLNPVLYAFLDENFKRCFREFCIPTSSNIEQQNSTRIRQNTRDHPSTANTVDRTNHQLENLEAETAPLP

The target of this experiment is Mu-type opioid receptor (Homo sapiens, UniProt P35372). The class given is functional, cell-based.

Active and inactive are the calls of the source. No rule for the calls is given here.
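Also: U2OS cells with beta-arrestin recruitment to OPRM1 by beta-gal complementation.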

Turning to `CN1C[C@H](C(=O)N[C@]2(C)O[C@@]3(O)[C@@H]4CCCN4C(=O)[C@H](Cc4ccccc4)N3C2=O)CC2c3cccc4[nH]cc(c34)C[C@H]21` (stereo partly specified), the EC50 is inactive: 92.5 µM.
